{
  "sequences": {"note": "Amino acid sequences for entries named in this document (tags omitted). A change or cut given only in a name is not applied to a line headed by its entry.", "UniProt Q13535": "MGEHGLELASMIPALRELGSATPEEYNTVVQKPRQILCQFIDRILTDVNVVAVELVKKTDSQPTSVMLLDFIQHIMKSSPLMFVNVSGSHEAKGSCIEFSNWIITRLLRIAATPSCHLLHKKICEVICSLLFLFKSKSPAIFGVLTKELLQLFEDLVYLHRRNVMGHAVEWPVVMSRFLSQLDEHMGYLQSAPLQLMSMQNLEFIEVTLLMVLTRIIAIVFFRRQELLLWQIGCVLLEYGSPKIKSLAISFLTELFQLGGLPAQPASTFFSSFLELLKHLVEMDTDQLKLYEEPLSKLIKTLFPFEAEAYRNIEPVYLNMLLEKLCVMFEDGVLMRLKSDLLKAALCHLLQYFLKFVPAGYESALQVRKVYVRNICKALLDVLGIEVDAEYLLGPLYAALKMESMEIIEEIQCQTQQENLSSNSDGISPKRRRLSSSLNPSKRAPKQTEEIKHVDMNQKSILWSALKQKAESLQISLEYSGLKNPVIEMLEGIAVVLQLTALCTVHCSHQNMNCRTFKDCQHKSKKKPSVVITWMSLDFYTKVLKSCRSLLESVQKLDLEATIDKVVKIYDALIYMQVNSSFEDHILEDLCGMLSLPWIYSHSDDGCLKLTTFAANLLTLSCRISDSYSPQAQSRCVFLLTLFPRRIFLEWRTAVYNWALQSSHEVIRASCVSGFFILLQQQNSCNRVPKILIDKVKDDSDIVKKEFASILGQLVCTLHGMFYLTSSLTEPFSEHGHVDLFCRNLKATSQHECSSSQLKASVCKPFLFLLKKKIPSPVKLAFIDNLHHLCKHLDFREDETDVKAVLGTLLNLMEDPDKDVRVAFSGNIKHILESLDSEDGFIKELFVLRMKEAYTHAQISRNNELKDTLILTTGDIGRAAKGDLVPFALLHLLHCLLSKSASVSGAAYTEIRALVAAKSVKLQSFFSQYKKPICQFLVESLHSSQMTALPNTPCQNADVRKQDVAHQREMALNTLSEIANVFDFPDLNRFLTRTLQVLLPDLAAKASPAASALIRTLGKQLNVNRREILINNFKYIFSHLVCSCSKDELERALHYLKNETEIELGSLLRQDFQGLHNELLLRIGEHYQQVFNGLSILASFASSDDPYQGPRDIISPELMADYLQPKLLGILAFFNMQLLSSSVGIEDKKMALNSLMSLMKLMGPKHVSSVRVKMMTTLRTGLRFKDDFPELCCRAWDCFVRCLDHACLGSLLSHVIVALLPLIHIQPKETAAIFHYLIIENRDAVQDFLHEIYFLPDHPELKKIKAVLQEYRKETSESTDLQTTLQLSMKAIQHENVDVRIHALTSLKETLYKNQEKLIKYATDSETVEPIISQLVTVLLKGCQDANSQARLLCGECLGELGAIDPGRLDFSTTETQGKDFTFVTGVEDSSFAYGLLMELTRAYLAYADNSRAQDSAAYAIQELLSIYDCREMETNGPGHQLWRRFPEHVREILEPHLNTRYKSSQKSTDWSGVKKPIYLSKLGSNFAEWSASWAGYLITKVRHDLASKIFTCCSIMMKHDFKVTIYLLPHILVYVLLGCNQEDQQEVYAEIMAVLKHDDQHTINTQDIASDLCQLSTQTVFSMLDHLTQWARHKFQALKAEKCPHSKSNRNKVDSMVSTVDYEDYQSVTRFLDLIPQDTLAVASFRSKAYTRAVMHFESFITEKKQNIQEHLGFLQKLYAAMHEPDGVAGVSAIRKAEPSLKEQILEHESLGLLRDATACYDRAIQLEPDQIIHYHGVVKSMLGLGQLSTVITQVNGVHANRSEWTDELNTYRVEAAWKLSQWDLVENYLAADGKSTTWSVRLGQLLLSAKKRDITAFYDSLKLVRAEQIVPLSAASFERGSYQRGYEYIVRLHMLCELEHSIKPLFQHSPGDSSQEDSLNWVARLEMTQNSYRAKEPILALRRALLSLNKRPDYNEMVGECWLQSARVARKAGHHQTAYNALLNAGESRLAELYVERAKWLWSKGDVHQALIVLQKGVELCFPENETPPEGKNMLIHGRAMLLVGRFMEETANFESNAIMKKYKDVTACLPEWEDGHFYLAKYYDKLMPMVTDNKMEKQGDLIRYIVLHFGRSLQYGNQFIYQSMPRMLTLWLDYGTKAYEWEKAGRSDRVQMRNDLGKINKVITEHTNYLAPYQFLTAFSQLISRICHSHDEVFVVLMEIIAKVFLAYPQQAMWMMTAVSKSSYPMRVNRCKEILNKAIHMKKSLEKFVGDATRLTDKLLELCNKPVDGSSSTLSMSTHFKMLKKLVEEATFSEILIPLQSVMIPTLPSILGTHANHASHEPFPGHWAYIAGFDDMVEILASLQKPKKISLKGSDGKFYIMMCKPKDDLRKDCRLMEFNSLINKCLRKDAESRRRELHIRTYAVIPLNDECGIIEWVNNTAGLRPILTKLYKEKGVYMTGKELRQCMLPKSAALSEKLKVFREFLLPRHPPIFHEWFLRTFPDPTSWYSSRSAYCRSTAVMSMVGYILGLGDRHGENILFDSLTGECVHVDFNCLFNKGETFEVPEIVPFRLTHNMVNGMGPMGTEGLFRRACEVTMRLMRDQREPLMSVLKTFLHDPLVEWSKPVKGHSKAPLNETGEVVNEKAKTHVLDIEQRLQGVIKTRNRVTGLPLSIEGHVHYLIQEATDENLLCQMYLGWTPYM"},
  "source": "ChEMBL document CHEMBL5523766",
  "about": "(J Med Chem, 2024)",
  "target": "Serine/threonine-protein kinase ATR (Homo sapiens, UniProt Q13535)",
  "assay": "Inhibition of ATR in human Granta-519 cells assessed as downregulation of niraparib-induced CHKI phosphorylation at 2 uM in presence of PARP inhibitor niraparib by Western blot analysis",
  "assay_type": "cell-based",
  "note": "Active and inactive are the calls of the source. No cut-off for these calls is given here.",
  "data": [
    {"smiles": "C[C@@H]1COCCN1c1nc(-c2ccnc3[nH]ccc23)nc2c1ccn2S(C)(=O)=O", "values": [
      {"measurement": "inhibition", "result": "Active"}
    ]}
  ]
}
